Measurements: publication PMC7445743 (Journal of Medicinal Chemistry, 2020)
Counter-ions that a name gives are not always drawn.

By UniProt entry, the sequences of proteins in these tests, tags left out. Where a name states a change or a piece, a line headed by the entry shows the natural chain unless it says otherwise.
UniProt O43293: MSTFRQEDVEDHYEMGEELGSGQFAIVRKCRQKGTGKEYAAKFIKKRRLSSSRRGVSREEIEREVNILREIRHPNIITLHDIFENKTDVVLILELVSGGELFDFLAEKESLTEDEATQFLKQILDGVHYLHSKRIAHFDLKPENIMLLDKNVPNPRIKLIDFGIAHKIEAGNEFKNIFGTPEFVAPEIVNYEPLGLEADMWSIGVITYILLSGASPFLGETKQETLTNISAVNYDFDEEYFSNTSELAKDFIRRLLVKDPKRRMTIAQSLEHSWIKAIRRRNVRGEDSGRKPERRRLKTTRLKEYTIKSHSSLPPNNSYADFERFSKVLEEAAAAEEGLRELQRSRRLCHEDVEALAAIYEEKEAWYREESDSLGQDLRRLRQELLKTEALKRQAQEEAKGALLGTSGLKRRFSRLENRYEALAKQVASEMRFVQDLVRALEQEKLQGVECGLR
UniProt P00519, whole entry, species assumed: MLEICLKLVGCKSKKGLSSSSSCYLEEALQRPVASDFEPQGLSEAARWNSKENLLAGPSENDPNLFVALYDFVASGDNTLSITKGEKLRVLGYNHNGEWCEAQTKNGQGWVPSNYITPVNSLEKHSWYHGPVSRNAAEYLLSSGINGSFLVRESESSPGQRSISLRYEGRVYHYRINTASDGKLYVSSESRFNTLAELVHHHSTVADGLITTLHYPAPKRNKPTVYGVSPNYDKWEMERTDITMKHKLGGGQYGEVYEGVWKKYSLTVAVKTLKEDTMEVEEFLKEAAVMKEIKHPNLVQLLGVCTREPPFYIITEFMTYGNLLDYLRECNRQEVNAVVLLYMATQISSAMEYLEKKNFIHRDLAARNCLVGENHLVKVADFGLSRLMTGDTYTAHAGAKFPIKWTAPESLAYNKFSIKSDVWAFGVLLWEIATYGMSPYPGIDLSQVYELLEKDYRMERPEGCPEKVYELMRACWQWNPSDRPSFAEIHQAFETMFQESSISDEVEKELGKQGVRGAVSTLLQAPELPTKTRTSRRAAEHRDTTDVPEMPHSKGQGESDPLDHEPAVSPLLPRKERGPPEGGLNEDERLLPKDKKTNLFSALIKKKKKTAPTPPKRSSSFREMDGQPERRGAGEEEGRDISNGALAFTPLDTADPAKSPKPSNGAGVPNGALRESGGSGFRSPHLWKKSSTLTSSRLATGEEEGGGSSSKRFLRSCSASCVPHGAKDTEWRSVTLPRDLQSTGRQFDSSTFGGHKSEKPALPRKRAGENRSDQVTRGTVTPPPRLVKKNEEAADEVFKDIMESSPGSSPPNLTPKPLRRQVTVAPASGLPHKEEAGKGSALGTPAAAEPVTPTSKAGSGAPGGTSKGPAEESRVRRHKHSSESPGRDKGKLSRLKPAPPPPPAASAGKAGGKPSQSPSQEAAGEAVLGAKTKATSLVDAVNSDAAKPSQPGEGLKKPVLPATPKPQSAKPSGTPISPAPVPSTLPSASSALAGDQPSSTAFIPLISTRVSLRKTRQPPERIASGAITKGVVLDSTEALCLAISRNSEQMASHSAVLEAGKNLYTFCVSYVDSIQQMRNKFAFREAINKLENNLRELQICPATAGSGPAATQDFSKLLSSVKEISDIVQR
UniProt P53355: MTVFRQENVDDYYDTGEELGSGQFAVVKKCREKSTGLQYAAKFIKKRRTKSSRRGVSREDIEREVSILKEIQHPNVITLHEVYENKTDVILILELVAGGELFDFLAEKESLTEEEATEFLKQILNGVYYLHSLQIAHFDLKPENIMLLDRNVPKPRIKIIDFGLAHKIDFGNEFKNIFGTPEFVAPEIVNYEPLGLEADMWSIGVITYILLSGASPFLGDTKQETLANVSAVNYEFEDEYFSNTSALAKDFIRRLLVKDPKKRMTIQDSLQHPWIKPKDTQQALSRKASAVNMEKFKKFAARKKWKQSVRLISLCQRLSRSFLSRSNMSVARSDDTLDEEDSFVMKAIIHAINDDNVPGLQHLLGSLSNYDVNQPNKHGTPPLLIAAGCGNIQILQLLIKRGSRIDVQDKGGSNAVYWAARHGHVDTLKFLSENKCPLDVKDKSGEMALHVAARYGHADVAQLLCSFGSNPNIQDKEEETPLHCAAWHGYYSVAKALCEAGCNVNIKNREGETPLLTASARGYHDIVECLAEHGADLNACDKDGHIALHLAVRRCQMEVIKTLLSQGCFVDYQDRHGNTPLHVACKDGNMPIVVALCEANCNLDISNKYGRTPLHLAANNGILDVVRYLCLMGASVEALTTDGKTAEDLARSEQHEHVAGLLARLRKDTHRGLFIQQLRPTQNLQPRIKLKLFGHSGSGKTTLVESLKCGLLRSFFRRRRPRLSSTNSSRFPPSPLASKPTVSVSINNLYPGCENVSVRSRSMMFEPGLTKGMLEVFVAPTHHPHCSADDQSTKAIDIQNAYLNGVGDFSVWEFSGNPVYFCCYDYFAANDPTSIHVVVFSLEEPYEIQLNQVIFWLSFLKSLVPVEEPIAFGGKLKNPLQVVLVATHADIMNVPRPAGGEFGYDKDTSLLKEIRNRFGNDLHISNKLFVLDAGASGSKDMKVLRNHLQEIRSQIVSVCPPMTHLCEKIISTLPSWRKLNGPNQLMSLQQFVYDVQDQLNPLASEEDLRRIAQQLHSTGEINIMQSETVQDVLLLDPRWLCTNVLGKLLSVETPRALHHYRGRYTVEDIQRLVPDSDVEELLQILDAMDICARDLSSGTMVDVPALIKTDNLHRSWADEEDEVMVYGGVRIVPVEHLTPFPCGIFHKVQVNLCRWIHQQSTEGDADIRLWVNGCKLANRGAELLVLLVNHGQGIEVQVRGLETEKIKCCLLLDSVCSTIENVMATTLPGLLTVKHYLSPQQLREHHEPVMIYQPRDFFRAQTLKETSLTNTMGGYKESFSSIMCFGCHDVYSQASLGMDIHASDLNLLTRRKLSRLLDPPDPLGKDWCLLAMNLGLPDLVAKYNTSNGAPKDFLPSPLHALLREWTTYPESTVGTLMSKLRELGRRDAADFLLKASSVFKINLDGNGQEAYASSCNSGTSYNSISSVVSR
UniProt P68400, whole entry: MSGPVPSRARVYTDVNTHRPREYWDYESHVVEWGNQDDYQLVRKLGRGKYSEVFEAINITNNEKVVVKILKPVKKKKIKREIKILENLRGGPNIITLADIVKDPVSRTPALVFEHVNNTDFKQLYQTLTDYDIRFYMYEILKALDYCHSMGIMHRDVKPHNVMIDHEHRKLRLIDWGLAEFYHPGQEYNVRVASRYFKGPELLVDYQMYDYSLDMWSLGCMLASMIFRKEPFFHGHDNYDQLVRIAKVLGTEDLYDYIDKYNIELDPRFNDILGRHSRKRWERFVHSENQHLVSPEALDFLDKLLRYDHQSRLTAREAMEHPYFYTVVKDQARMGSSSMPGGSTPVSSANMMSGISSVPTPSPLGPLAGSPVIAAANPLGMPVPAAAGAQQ
UniProt P11309, whole entry: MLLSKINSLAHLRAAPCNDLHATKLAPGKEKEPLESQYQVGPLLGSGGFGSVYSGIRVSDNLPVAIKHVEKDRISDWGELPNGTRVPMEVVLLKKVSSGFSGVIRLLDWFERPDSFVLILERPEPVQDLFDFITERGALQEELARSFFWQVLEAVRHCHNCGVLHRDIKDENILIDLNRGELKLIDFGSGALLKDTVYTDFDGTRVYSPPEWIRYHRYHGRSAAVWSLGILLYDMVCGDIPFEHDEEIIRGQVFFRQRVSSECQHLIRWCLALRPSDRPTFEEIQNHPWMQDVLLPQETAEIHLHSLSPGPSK
UniProt O96013: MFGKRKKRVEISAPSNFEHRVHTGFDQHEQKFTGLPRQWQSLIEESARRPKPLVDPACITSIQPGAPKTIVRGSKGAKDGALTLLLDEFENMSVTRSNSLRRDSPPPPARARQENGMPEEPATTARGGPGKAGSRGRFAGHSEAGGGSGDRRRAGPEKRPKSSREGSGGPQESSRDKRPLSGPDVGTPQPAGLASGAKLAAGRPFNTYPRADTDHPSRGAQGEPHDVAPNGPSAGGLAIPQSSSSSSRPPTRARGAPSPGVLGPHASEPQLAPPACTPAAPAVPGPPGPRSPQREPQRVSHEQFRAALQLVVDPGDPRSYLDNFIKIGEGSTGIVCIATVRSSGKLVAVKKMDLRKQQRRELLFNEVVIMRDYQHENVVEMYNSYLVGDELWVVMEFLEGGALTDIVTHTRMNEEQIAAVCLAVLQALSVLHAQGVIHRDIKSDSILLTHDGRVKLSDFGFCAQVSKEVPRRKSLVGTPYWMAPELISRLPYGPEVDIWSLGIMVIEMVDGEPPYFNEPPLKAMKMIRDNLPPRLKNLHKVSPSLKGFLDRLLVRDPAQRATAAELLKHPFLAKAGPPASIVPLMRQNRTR
UniProt P49841, whole entry, species assumed: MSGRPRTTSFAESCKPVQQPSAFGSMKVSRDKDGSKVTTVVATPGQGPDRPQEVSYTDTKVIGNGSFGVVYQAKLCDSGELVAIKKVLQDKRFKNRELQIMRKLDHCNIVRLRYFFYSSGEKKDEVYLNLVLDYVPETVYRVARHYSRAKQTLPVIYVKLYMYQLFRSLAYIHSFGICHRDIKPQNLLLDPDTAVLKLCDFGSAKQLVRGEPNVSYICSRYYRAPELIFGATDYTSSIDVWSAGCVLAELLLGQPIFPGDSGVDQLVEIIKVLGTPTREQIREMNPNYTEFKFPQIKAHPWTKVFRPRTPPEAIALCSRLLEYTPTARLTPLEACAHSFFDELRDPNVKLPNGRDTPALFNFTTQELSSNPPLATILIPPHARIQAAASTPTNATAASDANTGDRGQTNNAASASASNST
UniProt Q96NX5: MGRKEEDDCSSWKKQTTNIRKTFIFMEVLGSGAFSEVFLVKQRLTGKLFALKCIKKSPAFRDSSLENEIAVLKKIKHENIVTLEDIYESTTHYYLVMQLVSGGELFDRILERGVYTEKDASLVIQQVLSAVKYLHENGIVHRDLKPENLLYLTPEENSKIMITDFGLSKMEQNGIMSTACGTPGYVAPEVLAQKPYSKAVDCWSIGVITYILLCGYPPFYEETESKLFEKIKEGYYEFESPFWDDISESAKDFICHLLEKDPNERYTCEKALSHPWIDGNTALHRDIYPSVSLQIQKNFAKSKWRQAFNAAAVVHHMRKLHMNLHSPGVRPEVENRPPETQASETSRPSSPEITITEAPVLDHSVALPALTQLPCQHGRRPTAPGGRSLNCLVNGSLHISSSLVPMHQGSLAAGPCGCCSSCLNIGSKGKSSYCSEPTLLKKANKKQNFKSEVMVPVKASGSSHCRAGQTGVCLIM
UniProt Q9UQM7, whole entry: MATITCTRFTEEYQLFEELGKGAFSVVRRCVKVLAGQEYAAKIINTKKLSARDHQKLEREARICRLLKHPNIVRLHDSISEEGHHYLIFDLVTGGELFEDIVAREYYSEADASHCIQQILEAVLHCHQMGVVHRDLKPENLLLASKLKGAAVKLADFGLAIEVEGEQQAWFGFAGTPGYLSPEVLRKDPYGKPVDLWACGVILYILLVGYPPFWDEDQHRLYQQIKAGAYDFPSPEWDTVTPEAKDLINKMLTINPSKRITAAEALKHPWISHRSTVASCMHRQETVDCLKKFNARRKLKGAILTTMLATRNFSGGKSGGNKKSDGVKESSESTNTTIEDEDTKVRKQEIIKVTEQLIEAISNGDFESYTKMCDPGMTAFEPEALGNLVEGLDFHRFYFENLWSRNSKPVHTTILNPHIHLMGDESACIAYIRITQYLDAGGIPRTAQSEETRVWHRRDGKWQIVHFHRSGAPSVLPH

Tests used:
[1] = target: DAPK3 (Homo sapiens, UniProt O43293); settings: supplement CSV
[2] = target: T1, CaMK4 (Homo sapiens, UniProt Q16566); settings: supplement CSV
T1 sequence (Q16566 1-473): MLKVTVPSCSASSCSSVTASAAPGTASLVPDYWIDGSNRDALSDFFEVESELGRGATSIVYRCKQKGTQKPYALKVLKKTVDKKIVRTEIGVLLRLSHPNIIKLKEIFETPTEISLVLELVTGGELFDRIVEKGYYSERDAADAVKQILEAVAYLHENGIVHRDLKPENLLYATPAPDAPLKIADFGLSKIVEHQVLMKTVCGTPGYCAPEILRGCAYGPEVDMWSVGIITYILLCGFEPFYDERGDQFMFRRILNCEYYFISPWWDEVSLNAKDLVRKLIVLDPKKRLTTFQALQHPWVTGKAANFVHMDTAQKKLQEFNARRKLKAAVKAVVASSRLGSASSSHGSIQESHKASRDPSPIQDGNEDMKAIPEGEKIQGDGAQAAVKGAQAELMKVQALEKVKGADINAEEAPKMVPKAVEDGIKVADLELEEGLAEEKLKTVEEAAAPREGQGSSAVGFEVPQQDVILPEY

[3] = target: ABL (Homo sapiens, UniProt P00519); settings: supplement CSV
[4] = target: DAPK1 (Homo sapiens, UniProt P53355); settings: supplement CSV
[5] = target: SYK (Homo sapiens, UniProt P43405); settings: supplement CSV
[6] = target: CK2a (Homo sapiens, UniProt P68400); settings: supplement CSV
[7] = target: PIM1 (Homo sapiens, UniProt P11309); settings: supplement CSV
[8] = target: PAK4 (Homo sapiens, UniProt O96013); settings: supplement CSV
[9] = target: GSK3β (Homo sapiens, UniProt P49841); settings: supplement CSV
[10] = target: T2, DCLK1 (Homo sapiens, UniProt O15075); settings: supplement CSV
T2 sequence (O15075 1-740): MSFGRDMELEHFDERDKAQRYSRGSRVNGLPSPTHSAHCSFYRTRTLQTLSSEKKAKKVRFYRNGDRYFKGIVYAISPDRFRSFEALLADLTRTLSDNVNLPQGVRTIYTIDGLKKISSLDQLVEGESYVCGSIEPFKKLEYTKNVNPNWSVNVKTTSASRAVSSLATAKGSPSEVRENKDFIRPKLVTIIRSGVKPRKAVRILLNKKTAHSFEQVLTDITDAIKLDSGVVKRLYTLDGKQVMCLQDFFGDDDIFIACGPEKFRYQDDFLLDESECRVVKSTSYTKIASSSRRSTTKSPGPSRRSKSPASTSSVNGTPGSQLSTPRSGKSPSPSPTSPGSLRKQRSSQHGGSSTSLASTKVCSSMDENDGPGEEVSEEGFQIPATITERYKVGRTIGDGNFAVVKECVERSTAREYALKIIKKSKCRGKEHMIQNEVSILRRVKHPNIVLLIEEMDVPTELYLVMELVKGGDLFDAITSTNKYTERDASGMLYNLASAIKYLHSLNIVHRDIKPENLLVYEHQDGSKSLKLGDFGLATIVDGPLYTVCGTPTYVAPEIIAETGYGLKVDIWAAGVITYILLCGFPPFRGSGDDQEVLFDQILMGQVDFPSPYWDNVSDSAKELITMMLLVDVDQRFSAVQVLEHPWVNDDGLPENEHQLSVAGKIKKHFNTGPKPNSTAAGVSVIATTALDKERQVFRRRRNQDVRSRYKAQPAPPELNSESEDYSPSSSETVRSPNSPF

[11] = target: CAMK1G (Homo sapiens, UniProt Q96NX5); settings: supplement CSV
[12] = target: CAMK2A (Homo sapiens, UniProt Q9UQM7); settings: supplement CSV
[13] = in vitro; settings: mouse, plasma
[14] = in vitro; settings: human, Caco-2
[15] = test system: DIO mice; settings: 50 mg/kg repeat dosing
[16] = DIO mice, 14 days at 25 mg/kg
[17] = in vivo; settings: male, Crl:CD Sprague-Dawley, rat, iv, 1 mg/kg
[18] = in vitro; settings: rat, plasma

SMILES: CNC(=O)c1cnc(NCCN)nc1Nc1cccc(C(F)(F)F)c1 [Compound 2, 2-((2-Aminoethyl)amino)-N-methyl-4-((3-(trifluoromethyl)phenyl)amino)pyrimidine-5-carboxamide, reference compound]
- DAPK3 Tm [1]: 1.36 0C

SMILES: CNCCN(C)c1ncc(C(N)=O)c(Nc2cccc(C(F)(F)F)c2)n1 [Compound 4, 2-(Methyl(2-(methylamino)ethyl)amino)-4-((3-(trifluoromethyl)phenyl)amino)pyrimidine-5-carboxamide Hydrochloride]
- CAMK4 Tm [2]: 3.36 0C

SMILES: CN(C)CCN(C)c1ncc(C(N)=O)c(Nc2cccc(C(F)(F)F)c2)n1 [Compound 5, 2-((2-(Dimethylamino)ethyl)(methyl)amino)-4-((3-(trifluoromethyl)phenyl)amino)pyrimidine-5-carboxamide Hydrochloride]
- DAPK3 Tm [1]: 3.45 0C
- CAMK4 Tm [2]: 2.21 0C

SMILES: NC(=O)c1cnc(N2CCC[C@H](N)C2)nc1Nc1cc(C(F)(F)F)cc(C(F)(F)F)c1 [Compound 9]
- ABL1 Tm [3]: 3.88 0C
- DAPK1 Tm [4]: 6.07 0C
- SYK Tm [5]: 4.13 0C
- CK2alpha Tm [6]: 5.89 0C
- PIM1 Tm [7]: 3.98 0C

SMILES: CC(C)c1cc(Nc2nc(N3CCC[C@H](N)C3)ncc2C(N)=O)cc(C(C)C)c1 [Compound 15, (S)-2-(3-Aminopiperidin-1-yl)-4-((3,5-diisopropylphenyl)amino)pyrimidine-5-carboxamide]
- ABL1 Tm [3]: 5.95 0C
- DAPK1 Tm [4]: 4.65 0C
- CK2alpha Tm [6]: 4.05 0C

SMILES: CC(C)(C)c1cc(Nc2nc(N3CCC[C@H](N)C3)ncc2C(N)=O)cc(S(C)(=O)=O)c1 [Compound 16, (S)-2-(3-Aminopiperidin-1-yl)-4-((3-(tert-butyl)-5-(methylsulfonyl)phenyl)amino)pyrimidine-5-carboxamide]
- DAPK3 Tm [1]: 6.49 0C
- PAK4 Tm [8]: 1.43 0C
- GSK3B Tm [9]: -0.11 0C
- DCAMKL1 Tm [10]: 0.26 0C
- CAMK1G Tm [11]: 11.05 0C
- CAMK4 Tm [2]: 8.73 0C
- CAMK2A Tm [12]: 1.07 0C

SMILES: CC(C)(C#N)c1cc(Nc2nc(N3CCC[C@H](N)C3)ncc2C(N)=O)cc(-c2ccccc2)c1 [Compound 17, (S)-2-(3-Aminopiperidin-1-yl)-4-((5-(2-cyanopropan-2-yl)-[1,1′-biphenyl]-3-yl)amino)pyrimidine −5-carboxamide Hydrochloride]
- PAK4 Tm [8]: 2.67 0C
- CAMK1G Tm [11]: 17.46 0C

SMILES: CC(C)(C#N)c1cc(Nc2nc(N3CCC[C@H](N)C3)ncc2C(N)=O)cc(C(C)(C)C#N)c1 [Compound 18, (S)-2-(3-Aminopiperidin-1-yl)-4-((3,5-bis(2-cyanopropan-2-yl)phenyl)amino)pyrimidine-5-carboxamide Hydrochloride]
- fraction unbound [13]: 0.016
- ABL1 Tm [3]: 0.27 0C
- Papp A→B [14]: 1.1 ×10⁻⁶ cm/s
- PAK4 Tm [8]: 1.23 0C
- tolerability of repeat dosing [15]: not tolerated due to bloating of the gastrointestinal tract
- DAPK1 Tm [4]: 3.46 0C
- exposure on repeat dosing [16]: no significant changes in exposure
- CAMK1G Tm [11]: 11.04 0C
- CK2alpha Tm [6]: 0.56 0C
- metabolites in ex vivo plasma (rat ex vivo plasma samples): only low levels of metabolites
- renal excretion (urine from dosed rats): renal excretion of unchanged drug at least partially contributes to clearance
- PIM1 Tm [7]: 0.81 0C
- clearance [17]: 125 mL/min/kg
- half-life [17]: 6.2 h
- fraction unbound [18]: 0.06

SMILES: CC(C)c1cc(Nc2nc(N3CCC[C@H](N)C3)ncc2C(N)=O)cc(C(C)C)n1 [Compound 19, (S)-2-(3-Aminopiperidin-1-yl)-4-((2,6-diisopropylpyridin-4-yl)amino)pyrimidine-5-carboxamide]
- Papp A→B [14]: 0.4 ×10⁻⁶ cm/s
